Patent publication US5591749A, “Imidazopyridines as serotonergic 5-HT3 -antagonists” (G. D. Searle & Co., priority 1995, dated 1997)

Chains of the proteins cited; added tags and fusions are not shown. Residues count along the entry.
UniProt P35563, 24-483: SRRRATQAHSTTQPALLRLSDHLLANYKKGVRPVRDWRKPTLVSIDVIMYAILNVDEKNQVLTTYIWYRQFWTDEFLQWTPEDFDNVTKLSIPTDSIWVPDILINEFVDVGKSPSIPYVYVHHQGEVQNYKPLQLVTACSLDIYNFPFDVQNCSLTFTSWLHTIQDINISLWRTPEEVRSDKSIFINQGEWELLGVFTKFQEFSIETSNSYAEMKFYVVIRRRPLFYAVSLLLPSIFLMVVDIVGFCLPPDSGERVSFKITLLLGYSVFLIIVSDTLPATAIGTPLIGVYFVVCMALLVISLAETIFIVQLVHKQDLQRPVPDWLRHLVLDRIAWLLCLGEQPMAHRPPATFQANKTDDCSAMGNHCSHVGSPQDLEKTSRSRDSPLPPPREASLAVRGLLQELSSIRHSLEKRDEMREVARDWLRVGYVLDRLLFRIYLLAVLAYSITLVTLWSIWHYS

Biological target: T1, 5-HT3 receptor (Rattus norvegicus, UniProt P35563)
T1 construct: Brain cortices are obtained from male rats and a membrane fraction prepared by standard techniques; from tissue; host or cells: rat brain cortex membranes
Assay: [3H]-GR65630 radioligand receptor binding assay, rat brain cortex membranes
Conditions: 0.2 nM [3H]-GR65630
Description: 5-HT3 antagonism can be determined by the radioligand receptor binding assay as described herein and in the in vivo Bezold-Jarisch reflex procedure.
GR65630 binds to the 5-HT3 receptor. Brain cortices are obtained from male rats and a membrane fraction prepared by standard techniques. 0.04 mg of membrane prep is incubated with 0.2 nM [^3 H]-GR656630 for 60 minutes at 22° C. […] Membranes are filtered and washed 3 times and the filters are counted to determine [3H]-GR65630 specifically bound.*
Effect of Reference Compounds on
Kilpatrick GJ, Jones BJ and Tyers MB. Identification and distribution of 5-HT3 receptors in rat brain using radioligand binding. Nature, 330: 746-748, 1987.

NCCc1c[nH]c2ccc(O)cc12 [Example 5-HT]
Hill Coefficient: 1.0
